Measurements: patent US20250115658A1 (FBD BIOLOGICS, published 2025)

Tests used:
[1] = biological target: T1, Human PD-L1-ECD-His (human); test: Octet Red96 BLI, PDL1-ECD-His loaded on anti-Penta-HIS (HIS1K) biosensor, PD1-Fc protein as analyte, 1:1 model, pH6.0; column head kdis(1/s); pH 6
T1 construct: Bought (Sino cat. no. I-10084-H08H); not shown: His tag

[2] = biological target: T1, Human PD-L1-ECD-His; test: Octet Red96 BLI, PDL1-ECD-His loaded on anti-Penta-HIS (HIS1K) biosensor, PD1-Fc protein as analyte, 1:1 model, pH7.4; pH 7.4
[3] = biological target: T1, Human PD-L1-ECD-His; test: Octet Red96 BLI, pH7.4; fold of affinity against PD1-Fc-wt1
[4] = biological target: T1, Human PD-L1-ECD-His; test: Octet Red96 BLI, PDL1-ECD-His loaded on anti-Penta-HIS (HIS1K) biosensor, PD1-Fc protein as analyte, 1:1 model, pH7.4; column head kdis(1/s); pH 7.4
[5] = biological target: T1, Human PD-L1-ECD-His; test: Octet Red96 BLI, PDL1-ECD-His loaded on anti-Penta-HIS (HIS1K) biosensor, PD1-Fc protein as analyte, 1:1 model, pH6.0; pH 6
[6] = biological target: T1, Human PD-L1-ECD-His; test: Octet Red96 BLI, pH6.0; fold of affinity against PD1-Fc-wt1
[7] = biological target: T2, PD-L1 on PD-L1 transfected CHO-S cells (human); test: flow cytometry on PDL1 transfected CHO-S cells, goat anti-human Fc PE detection, pH6.0
T2 construct: also called PD-L1 tf CHO-S cells

- koff [1]: 0.0116 s⁻¹
- Kd [2]: 10 nM
- kon [2]: 1.01e+06 M⁻¹ s⁻¹
- Fold [3]: 1
- koff [4]: 0.0101 s⁻¹
- Kd [5]: 17.9 nM
- kon [5]: 646000 M⁻¹ s⁻¹
- Fold [6]: 1
- EC50 (read off the curve) [7]: ~5 µg/mL
B1: PD1-Fc-WT1 (Fc fusion)
chain: DSPDRPWNPPTFSPALLVVTEGDNATFTCSFSNTSESFVLNWYRMSPSNQTDKLAAFPEDRSQPGQDCRFRVTQLPNGRDFHMSVVRARRNDSGTYLCGAISLAPKAQIKESLRAELRVTERRAEVPTAHPSPSPRPAGQFQTLV
notes: also called biotin-PD1-Fc-WT1; hPD-1-Fc (wild type); not shown: human IgG4 hinge and Fc
